Laboratory results as given in patent publication US20130337579, “Methods for Determining Protein Ligand Binding” (UNIVERSITY OF MARYLAND, COLLEGE PARK, published 2013).

Columns and labels:
Settings in all cases: tags: His-CRP expressed from pBAD-CRP, Ni-NTA and anion exchange; chain copies: 2; label: 5'-32P
[1] = molecular target: T1, CRP (catabolite activator protein, cAMP receptor protein) (Escherichia coli, UniProt P0ACJ8 P0ACJ8:2-210); assay: DRaCALA; 200 nM cAMP
T1 sequence: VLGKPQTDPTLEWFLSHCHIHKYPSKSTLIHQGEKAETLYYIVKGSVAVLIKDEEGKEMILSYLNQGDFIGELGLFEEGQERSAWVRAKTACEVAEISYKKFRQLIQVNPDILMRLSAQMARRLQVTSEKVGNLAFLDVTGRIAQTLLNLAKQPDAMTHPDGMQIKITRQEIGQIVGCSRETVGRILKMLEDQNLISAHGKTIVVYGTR

[2] = molecular target: T1, CRP (catabolite activator protein, cAMP …); assay: DRaCALA; 200 uM cAMP; 10 mM Tris pH 7.9, 200 mM NaCl, room temp
[3] = molecular target: T1, CRP (catabolite activator protein, cAMP …); assay: DRaCALA; no cAMP

B1: ICAP oligo duplex (gd126/gd127) (dsDNA)
DNA 1: AGGAGGAATAAATGTGATCTAGATCACATTTTAGAGGAGG
DNA 2: CCTCCTCTAAAATGTGATCTAGATCACATTTATTCCTCCT
**Q.** Which Kd [1] does the source give for B1 here?
**A.** The Kd was 56 nM.

**Q.** What about the Kd [2] of the same binder?
**A.** Its Kd is 0.56 nM.

**Q.** What about the Kd [3] of the same binder?
**A.** Its Kd is 8400 nM.
